Values quoted from earlier work in US8759371B2, “Heterocyclic compounds and their uses” (Amgen Inc., priority 2010, dated 2014).

Sequences of proteins named here, by UniProt entry; tags and fusion partners are left off.
UniProt P42338, whole entry, species assumed: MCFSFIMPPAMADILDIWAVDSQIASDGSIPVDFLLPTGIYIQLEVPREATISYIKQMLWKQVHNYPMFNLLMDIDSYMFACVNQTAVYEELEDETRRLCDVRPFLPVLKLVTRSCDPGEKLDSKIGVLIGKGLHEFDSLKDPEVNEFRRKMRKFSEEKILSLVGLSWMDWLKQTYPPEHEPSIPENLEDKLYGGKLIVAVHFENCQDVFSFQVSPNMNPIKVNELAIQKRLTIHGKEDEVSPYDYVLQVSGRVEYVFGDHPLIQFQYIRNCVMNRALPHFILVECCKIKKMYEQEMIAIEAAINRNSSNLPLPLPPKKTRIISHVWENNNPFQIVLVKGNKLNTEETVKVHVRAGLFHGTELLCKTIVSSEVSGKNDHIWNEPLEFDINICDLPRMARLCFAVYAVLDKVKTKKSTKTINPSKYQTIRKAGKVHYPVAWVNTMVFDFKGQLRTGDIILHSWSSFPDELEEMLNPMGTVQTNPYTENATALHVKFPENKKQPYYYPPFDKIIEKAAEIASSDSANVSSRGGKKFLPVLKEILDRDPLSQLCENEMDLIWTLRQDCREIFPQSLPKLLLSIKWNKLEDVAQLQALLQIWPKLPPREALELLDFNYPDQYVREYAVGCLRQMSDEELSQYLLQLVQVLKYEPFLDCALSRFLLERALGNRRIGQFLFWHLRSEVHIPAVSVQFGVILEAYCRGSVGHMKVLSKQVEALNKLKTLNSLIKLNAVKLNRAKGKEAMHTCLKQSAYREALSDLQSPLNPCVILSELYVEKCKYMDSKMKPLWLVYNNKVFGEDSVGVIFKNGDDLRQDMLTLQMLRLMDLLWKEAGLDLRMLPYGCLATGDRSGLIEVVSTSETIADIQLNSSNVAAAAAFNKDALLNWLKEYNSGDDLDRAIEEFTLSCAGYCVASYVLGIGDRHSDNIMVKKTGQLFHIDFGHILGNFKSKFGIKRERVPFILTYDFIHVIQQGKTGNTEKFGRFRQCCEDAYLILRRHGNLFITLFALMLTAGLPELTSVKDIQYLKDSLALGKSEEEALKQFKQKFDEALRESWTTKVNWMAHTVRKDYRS

Target: p110β (Homo sapiens, UniProt P42338)
Settings: quantity not given; read-out: potency on beta

IC50: 7 nM
SMILES: Cc1cc(C(C)Nc2ccccc2)c2nc(N3CCOCC3)cc(=O)n2c1 (stereo not shown) [TGX-221]
